Experimental data reported in US20230101403A1, “METHOD OF TREATING OR AMELIORATING CANCERS DRIVEN BY RECEPTOR TYROSINE KINASE FUSION ONCOGENES, AND COMPOSITIONS FOR THE SAME” (THE TRUSTEES OF THE UNIVERSITY OF PENNSYLVANIA, priority 2021, published 2023).

System: ppErk, Beas2B cells expressing EML4-ALK(V1)
Format: cell-based
Details: Beas2B transiently expressing EML4-ALK; pre-incubation 1 μM; EGF

Structure (SMILES): C[C@@H](Oc1cc(-c2cnn(C3CCNCC3)c2)cnc1N)c1c(Cl)ccc(F)c1Cl [crizotinib]
- EML4-ALK-induced suppression of EGFR signaling (ppErk): reversed EML4-ALK-induced suppression of EGFR signaling
